## Apparent affinities of Ab-14 variants for a coronavirus HR2 peptide

Reference: Li et al. 2023, doi:10.1038/s41467-023-39022-2. File: FLAb, binding data.

Target peptide (SARS-CoV-2 spike, HR2 region): PDVDLGDISGINAS

Ab-14 is the parent antibody, in scFv form: VH, then a 15-residue (Gly4Ser)3 linker, then VL. The heavy chain is unchanged in all variants.
VH: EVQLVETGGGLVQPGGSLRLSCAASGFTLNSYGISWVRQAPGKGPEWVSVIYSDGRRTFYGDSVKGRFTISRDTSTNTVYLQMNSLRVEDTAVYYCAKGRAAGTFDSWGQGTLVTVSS
VL: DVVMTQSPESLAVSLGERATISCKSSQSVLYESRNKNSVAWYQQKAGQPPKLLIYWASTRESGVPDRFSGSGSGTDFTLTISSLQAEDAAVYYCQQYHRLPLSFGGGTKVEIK

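The starting antibody came from a phage panning campaign against this peptide. The variants were designed computationally from a first round of random CDR variants and then made and measured. Their group label is 14L_GP_HC (GP: Gaussian process model; HC: hill climbing; a sequence that several methods proposed may carry one label only). Affinity was read by AlphaSeq, a pooled yeast mating assay with surface-displayed partners. Binding brings cells together so that they mate, and sequencing counts the barcode pairs among the diploids. Scores were corrected for input abundance and mapped to Kd with protein pairs of known affinity run in the same pool. The assay was run in six technical replicates.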

Sequences are complete VL domains. Numbers give log10(Kd / nM), so 0 is 1 nM and 3 is 1 µM. Smaller is tighter. The mean shown is taken over the replicates in which the pair was detected. The authors' rule: three or more of the six replicates give a measured affinity, fewer mean a poor binder. Background: pairings of all light chain designs with three empty control strains gave a value in 4% of cases (median 2.64, 5th percentile 1.59). Values in that range, when seen in few replicates, are hard to tell from nonspecific mating. Also given: how often the same scFv was detected with the empty control strains, with their mean in brackets. Values of this round are not directly comparable with the first-round values of the same sequences.

| VL | log10 Kd, replicates | log10 Kd (nM), mean | empty controls |
|---|---|---|---|
| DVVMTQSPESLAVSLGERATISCHSSPSVEYESRNKNSVAWYQQKAGQPPKLLIYNASTREEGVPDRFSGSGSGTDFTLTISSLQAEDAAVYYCQDYHRLPLSFGGGTKVEIK | 0.20 0.02 -0.11 -0.13 -0.10 0.10 | 0.00 | 3 of 18 (3.81) |
| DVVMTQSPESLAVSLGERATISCKISISYLYESRNKNSVAWYQQKAGQPPKLLIYAASTRESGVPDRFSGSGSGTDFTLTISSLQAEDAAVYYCQQYHRLPLSFGGGTKVEIK | 0.25 0.17 -0.08 -0.08 0.10 0.08 | 0.07 | 0 of 18 |
| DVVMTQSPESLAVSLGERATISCKSSISYLQESRNKNSVAWYQQKAGQPPKLLIYEASTRESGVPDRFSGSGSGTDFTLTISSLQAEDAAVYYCQQYHRLPLSFGGGTKVEIK | 0.10 0.02 -0.23 -0.09 0.11 -0.03 | -0.02 | 3 of 18 (2.79) |
| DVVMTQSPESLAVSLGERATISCKSSQSYLYESGNKNSVAWYQQKAGQPPKLLIYEASTRESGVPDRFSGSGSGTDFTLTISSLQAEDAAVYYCQQYHRLPLSFGGGTKVEIK | 0.91 0.82 0.76 0.79 1.23 1.30 | 0.97 | 1 of 18 (2.17) |
| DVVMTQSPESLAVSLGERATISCKQSQSVLYESRNKNSVAWYQQKAGQPPKLLIYDASTRESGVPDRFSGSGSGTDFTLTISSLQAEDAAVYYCQQYHRLPLMFGGGTKVEIK | -0.12 -0.02 -0.30 -0.28 -0.15 0.23 | -0.11 | 0 of 18 |
| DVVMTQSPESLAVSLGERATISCKISQSVLMEHRNKNSVAWYQQKAGQPPKLLIYDASLRESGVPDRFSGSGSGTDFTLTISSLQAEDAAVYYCQQYHRLPLSFGGGTKVEIK | 0.47 -0.19 0.52 0.35 0.12 0.36 | 0.27 | 1 of 18 (2.03) |
| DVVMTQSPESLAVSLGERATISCKSSQSYDYESRNKNSVAWYQQKAGQPPKLLIYGASTRESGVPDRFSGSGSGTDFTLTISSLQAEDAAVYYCQQYHRLPLSFGGGTKVEIK | 0.14 -0.22 -0.21 -0.04 -0.36 0.17 | -0.08 | 2 of 18 (1.97) |
| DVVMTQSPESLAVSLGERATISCKDSQSVKFESRNKNSVAWYQQKAGQPPKLLIYDASTRESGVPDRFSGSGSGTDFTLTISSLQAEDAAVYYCQQYHRLPLSFGGGTKVEIK | 0.76 0.71 0.64 0.61 0.91 1.00 | 0.77 | 0 of 18 |
| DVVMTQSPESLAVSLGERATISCKLRQSTLYESRNKNSVAWYQQKAGQPPKLLIYAASTRLSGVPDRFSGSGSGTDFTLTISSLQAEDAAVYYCQQYHRLPLSFGGGTKVEIK | 0.07 -0.17 0.06 -0.26 -0.25 -0.13 | -0.11 | 0 of 18 |
| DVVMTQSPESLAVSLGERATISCKLRQSFLYESRNKNSVAWYQQKAGQPPKLLIYSASTRESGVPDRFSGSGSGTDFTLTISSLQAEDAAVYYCQQYHRLPLSFGGGTKVEIK | -0.46 -0.34 0.50 -0.76 -0.63 -0.31 | -0.34 | 0 of 18 |
| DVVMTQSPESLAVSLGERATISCKSSTGVLYESRNKNSVAWYQQKAGQPPKLLIYGASTRESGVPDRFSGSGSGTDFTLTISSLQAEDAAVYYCQQYHRLPLSFGGGTKVEIK | 0.67 1.26 0.61 0.66 0.46 0.73 | 0.73 | 1 of 18 (2.92) |
| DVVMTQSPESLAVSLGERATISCKSGPGVLYESRNKNHVAWYQQKAGQPPKLLIYGASTRESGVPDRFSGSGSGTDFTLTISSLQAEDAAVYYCQQYHRLPLSFGGGTKVEIK | 0.76 0.44 0.54 0.33 0.37 0.63 | 0.51 | 0 of 18 |
| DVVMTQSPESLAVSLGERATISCKVSQSWLGESRNKNSVAWYQQKAGQPPKLLIYEASTRQSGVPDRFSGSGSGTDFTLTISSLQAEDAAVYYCQQYHRLPLSFGGGTKVEIK | -0.06 -0.05 -0.18 -0.21 -0.12 -0.08 | -0.12 | 0 of 18 |
| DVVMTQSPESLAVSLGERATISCKMEQGVDYESRNKNSVAWYQQKAGQPPKLLIYGASVRESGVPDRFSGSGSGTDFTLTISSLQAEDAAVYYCQQYHRLPLSFGGGTKVEIK | -0.10 -0.21 -0.48 -0.24 -0.49 -0.21 | -0.29 | 0 of 18 |
| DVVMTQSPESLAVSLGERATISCKSSISYLYESANTNSVAWYQQKAGQPPKLLIYEASTRESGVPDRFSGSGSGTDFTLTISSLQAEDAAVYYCQQYHRLPLSFGGGTKVEIK | 0.17 0.21 0.05 0.09 -0.07 0.29 | 0.12 | 1 of 18 (2.42) |
| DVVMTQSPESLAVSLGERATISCKARQSWLYESRNKNSVAWYQQKAGQPPKLLIYGASTRESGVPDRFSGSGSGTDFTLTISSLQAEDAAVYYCQQYHRLPLIFGGGTKVEIK | -0.56 -0.52 -0.53 -0.70 -0.43 -0.51 | -0.54 | 0 of 18 |
| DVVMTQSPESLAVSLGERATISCKSEQGVLYQSRNKNSVAWYQQKAGQPPKLLIYGASTRESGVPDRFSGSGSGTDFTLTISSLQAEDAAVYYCQQYHRLPLSFGGGTKVEIK | -0.05 0.12 -0.08 0.03 -0.17 0.15 | 0.00 | 1 of 18 (2.01) |
| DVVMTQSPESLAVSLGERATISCKVSQEFLYESRNKNSVAWYQQKAGQPPKLLIYDASTRESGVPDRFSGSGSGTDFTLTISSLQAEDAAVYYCQQYHRLPLSFGGGTKVEIK | 0.02 -0.11 -0.28 -0.28 -0.11 -0.05 | -0.13 | 2 of 18 (2.99) |
| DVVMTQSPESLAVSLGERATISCHSSPSWLYESRNKNSVAWYQQKAGQPPKLLIYNASTRESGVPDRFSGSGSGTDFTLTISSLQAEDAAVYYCQQYHRLPLSFGGGTKVEIK | -0.40 -0.49 -0.40 -0.47 -0.32 -0.28 | -0.39 | 1 of 18 (2.27) |
| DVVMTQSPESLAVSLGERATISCHLSNSVLYESRNKNSVAWYQQKAGQPPKLLIYNASTRESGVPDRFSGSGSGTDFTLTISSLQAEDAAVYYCQQYHRLPLNFGGGTKVEIK | 0.12 0.11 -0.13 -0.24 -0.04 -0.04 | -0.04 | 0 of 18 |
| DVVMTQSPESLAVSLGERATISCKFSQKYLYEGRTKNSVAWYQQKAGQPPKLLIYNASTRESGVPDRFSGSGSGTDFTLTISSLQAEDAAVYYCQQYHRLPLSFGGGTKVEIK | 0.37 -0.01 0.15 -0.06 0.30 0.73 | 0.24 | 0 of 18 |
| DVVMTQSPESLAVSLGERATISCKESQSWYYESRNKNSVAWYQQKAGQPPKLLIYGASTRESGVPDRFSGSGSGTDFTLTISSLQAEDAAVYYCQQYHRLPLSFGGGTKVEIK | -0.03 -0.03 0.06 -0.24 -0.24 0.03 | -0.08 | 2 of 18 (2.25) |
| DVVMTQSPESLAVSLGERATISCKSSGSWLYESRNFWSVAWYQQKAGQPPKLLIYGASTRESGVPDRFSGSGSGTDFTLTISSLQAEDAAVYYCQQYHRLPLSFGGGTKVEIK | 1.29 0.53 0.77 1.16 1.10 0.62 | 0.91 | 0 of 18 |

Extract of 3 entries:

| VL | log10 Kd, replicates | log10 Kd (nM), mean | empty controls |
|---|---|---|---|
| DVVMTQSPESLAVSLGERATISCKMEQGVDYESRNKNSVAWYQQKAGQPPKLLIYGASVRESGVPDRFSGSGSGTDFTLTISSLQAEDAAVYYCQQYHRLPLSFGGGTKVEIK | -0.10 -0.21 -0.48 -0.24 -0.49 -0.21 | -0.29 | 0 of 18 |
| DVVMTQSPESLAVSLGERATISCKSSGSWLYESRNFWSVAWYQQKAGQPPKLLIYGASTRESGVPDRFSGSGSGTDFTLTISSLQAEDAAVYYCQQYHRLPLSFGGGTKVEIK | 1.29 0.53 0.77 1.16 1.10 0.62 | 0.91 | 0 of 18 |
| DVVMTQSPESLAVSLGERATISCKVSQEFLYESRNKNSVAWYQQKAGQPPKLLIYDASTRESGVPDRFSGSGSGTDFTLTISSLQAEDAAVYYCQQYHRLPLSFGGGTKVEIK | 0.02 -0.11 -0.28 -0.28 -0.11 -0.05 | -0.13 | 2 of 18 (2.99) |